Assay results as given in ChEMBL document CHEMBL3430321, “Simulation of multiple ion channel block provides improved early prediction of compounds' clinical torsadogenic risk” (Cardiovasc Res, 2011).

The chains behind the UniProt entries cited, without tags or fusion partners. Where a name states a change or a piece, a line headed by the entry shows the natural chain unless it says otherwise.
UniProt O35505, whole entry: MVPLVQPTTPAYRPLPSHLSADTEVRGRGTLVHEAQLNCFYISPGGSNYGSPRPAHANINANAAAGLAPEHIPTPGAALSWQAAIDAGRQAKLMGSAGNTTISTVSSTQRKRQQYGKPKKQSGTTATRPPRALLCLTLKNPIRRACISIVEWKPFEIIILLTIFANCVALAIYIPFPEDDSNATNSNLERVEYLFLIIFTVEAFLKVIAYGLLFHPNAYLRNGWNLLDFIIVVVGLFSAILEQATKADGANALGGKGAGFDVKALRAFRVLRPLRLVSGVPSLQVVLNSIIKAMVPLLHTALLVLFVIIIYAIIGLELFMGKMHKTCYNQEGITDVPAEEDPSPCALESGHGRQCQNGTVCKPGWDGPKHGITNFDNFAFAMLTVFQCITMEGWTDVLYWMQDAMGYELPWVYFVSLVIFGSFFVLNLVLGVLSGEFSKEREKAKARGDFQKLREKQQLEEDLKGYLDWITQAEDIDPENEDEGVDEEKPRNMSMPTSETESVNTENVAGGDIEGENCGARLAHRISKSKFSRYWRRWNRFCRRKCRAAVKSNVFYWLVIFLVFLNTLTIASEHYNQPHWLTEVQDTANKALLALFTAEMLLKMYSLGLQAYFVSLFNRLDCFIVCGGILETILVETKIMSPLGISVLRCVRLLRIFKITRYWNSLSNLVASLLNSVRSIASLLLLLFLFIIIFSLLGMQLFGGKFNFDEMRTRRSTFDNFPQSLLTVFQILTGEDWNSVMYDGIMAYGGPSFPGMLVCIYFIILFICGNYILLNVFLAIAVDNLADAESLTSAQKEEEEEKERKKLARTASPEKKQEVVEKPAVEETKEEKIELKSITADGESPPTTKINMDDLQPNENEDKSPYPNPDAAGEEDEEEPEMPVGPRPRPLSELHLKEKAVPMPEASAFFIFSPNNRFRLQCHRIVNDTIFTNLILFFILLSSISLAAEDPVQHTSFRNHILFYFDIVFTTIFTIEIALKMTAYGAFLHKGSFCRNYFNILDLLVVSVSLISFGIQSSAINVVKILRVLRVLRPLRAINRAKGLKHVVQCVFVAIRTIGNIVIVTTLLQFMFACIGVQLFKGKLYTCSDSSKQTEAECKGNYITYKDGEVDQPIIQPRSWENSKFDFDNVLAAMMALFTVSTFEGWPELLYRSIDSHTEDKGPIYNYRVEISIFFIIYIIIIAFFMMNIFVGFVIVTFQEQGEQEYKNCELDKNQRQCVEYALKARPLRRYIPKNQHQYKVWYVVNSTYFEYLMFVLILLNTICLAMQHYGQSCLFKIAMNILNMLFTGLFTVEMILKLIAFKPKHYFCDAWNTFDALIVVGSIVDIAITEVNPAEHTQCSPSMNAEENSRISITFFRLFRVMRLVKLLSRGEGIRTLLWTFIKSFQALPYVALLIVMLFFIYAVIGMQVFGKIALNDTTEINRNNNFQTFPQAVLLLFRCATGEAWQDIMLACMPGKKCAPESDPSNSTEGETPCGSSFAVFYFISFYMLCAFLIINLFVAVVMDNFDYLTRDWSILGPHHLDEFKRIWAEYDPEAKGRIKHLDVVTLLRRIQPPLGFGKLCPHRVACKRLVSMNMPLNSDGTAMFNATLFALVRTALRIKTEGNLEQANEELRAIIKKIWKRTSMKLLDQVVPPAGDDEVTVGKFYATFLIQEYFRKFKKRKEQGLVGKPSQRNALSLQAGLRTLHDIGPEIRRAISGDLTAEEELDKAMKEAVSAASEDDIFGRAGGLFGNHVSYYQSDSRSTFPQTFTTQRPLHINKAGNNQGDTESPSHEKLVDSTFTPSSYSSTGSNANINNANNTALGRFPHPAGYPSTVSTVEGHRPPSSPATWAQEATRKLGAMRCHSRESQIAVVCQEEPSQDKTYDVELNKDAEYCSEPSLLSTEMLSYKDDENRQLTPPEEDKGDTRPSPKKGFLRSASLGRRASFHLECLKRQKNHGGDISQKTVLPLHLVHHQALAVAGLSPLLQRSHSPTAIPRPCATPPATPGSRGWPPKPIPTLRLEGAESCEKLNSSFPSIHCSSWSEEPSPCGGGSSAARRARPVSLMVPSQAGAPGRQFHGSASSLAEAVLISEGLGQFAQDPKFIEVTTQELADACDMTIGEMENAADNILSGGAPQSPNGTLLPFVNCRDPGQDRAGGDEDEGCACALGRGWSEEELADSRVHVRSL
UniProt Q12809: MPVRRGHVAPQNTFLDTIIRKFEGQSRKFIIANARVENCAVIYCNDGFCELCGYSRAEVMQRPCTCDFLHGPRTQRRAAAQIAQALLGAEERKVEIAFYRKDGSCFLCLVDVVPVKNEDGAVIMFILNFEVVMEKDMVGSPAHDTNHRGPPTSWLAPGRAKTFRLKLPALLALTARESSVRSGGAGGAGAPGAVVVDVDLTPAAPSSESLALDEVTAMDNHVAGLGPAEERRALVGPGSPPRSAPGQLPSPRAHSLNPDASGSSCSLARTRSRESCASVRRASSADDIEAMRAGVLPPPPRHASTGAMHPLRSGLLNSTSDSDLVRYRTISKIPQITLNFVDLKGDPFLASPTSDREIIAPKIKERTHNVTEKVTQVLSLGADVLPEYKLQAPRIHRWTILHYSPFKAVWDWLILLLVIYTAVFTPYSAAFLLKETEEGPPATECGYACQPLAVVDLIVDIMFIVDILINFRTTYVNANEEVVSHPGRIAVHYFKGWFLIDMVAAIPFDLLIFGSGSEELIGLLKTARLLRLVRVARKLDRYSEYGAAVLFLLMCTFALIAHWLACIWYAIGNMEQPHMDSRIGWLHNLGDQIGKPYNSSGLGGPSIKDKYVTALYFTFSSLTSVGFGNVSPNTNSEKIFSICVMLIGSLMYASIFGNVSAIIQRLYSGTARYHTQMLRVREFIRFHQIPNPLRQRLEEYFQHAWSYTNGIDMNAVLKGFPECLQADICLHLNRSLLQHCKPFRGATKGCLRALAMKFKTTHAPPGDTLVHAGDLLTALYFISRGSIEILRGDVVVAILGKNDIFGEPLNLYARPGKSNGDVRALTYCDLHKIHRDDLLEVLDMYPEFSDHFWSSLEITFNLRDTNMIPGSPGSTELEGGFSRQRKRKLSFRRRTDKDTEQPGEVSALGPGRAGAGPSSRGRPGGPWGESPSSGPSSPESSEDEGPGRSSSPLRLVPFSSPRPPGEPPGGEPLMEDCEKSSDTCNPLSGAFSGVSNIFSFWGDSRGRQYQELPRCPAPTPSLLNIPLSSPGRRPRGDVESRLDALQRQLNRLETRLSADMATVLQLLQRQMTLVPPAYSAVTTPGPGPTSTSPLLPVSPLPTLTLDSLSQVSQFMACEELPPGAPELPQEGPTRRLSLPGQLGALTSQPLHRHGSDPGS
UniProt Q14524, whole entry: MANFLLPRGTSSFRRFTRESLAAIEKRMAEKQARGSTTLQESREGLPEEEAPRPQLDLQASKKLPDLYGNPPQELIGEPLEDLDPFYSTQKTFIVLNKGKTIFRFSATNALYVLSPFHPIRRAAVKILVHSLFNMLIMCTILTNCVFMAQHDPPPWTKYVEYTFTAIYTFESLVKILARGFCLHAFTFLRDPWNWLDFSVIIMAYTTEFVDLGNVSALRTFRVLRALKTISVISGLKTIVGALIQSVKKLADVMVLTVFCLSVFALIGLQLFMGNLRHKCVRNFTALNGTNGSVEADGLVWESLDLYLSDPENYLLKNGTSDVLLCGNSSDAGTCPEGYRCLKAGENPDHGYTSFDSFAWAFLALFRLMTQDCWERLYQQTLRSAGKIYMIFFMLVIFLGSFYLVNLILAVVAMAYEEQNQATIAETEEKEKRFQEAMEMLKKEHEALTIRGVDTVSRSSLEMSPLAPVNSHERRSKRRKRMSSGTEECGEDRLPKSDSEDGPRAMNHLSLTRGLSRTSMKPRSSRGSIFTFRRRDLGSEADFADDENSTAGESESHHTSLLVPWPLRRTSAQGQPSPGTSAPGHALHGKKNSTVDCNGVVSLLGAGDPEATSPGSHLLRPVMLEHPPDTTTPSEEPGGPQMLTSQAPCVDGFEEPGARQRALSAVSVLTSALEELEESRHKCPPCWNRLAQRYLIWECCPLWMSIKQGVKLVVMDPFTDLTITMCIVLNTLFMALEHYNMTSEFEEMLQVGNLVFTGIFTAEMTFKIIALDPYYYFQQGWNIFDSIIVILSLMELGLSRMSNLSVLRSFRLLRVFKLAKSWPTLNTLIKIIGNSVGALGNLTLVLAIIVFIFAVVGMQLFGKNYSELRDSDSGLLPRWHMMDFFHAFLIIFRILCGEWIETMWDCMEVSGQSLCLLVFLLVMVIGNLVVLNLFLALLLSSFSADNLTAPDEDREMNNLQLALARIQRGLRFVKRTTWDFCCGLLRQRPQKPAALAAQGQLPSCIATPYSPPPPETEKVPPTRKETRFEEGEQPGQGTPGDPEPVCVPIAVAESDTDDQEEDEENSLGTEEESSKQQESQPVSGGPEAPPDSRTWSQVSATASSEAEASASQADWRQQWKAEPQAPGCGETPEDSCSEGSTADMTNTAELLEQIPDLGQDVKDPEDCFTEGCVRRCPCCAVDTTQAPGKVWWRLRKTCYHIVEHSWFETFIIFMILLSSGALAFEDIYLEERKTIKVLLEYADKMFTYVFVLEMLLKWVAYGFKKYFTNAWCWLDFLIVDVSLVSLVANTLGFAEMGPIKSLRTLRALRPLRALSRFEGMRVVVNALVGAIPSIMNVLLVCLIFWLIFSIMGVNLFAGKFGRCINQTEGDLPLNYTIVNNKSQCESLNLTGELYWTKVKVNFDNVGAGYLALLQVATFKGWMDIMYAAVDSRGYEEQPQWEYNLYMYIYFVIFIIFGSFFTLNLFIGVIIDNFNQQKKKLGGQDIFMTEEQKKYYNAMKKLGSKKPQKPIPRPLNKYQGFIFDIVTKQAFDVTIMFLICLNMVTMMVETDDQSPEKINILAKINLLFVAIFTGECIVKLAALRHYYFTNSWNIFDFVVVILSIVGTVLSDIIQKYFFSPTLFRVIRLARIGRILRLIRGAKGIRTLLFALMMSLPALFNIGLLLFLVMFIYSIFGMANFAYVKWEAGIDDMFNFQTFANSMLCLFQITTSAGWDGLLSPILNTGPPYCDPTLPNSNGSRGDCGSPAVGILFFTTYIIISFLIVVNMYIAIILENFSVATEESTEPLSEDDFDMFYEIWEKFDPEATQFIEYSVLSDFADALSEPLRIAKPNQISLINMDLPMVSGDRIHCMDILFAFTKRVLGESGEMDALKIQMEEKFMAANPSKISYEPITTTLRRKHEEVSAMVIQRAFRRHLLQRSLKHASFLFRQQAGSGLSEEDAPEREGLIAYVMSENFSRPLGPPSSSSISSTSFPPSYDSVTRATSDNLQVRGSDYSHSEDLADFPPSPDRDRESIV

What was measured:
[1] = biological target: Voltage-dependent L-type calcium channel subunit alpha-1C (Cavia porcellus, UniProt O35505); assay: Inhibition of calcium current (ICaL) measured using whole-cell patch clamp experiments in isolated guinea pig ventricular myocytes; format: functional, tissue-based, Heart, Ventricular myocyte
[2] = biological target: Voltage-gated inwardly rectifying potassium channel KCNH2 (Homo sapiens, UniProt Q12809); assay: Inhibition of hERG K channel; format: functional
[3] = biological target: Sodium channel protein type 5 subunit alpha (Homo sapiens, UniProt Q14524); assay: Inhibition of sodium current measured using whole-cell patch clamp experiments in HEK-293 cells stably transfected with hNaV1.5 cDNA; format: functional, cell-based, HEK293

Structure (SMILES) | pIC50 [1] | pIC50 [2] | pIC50 [3]
O=C1NC(=O)C(c2ccccc2)(c2ccccc2)N1 [PHENYTOIN] | 3.99 | 4.00 | –
CNCCCN1c2ccccc2CCc2ccccc21 [DESIPRAMINE] | 5.77 | – | 5.82
CC(C)COCC(CN(Cc1ccccc1)c1ccccc1)N1CCCC1 (stereo not given) [BEPRIDIL] | – | 7.48 | –

pIC50: −log10 of the molar value.
